# Experimental data published in PMC6713091, “Exploring new structural features of the 4-[(3-methyl-4-aryl-2,3-dihydro-1,3-thiazol-2-ylidene)amino]benzenesulphonamide scaffold for the inhibition of human carbonic anhydrases” (Journal of Enzyme Inhibition and Medicinal Chemistry, 2019).
# By UniProt entry, the sequences of proteins in these tests, tags left out. Residues count along the entry.
# UniProt P00915, whole entry: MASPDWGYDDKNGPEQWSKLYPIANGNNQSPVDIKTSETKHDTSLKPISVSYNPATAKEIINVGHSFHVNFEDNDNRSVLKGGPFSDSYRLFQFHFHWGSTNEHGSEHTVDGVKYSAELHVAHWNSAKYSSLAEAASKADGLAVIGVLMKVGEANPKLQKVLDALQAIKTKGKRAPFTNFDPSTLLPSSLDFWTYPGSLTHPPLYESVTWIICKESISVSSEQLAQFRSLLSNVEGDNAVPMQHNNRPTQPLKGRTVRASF
# UniProt O43570, 25-354 limits assumed: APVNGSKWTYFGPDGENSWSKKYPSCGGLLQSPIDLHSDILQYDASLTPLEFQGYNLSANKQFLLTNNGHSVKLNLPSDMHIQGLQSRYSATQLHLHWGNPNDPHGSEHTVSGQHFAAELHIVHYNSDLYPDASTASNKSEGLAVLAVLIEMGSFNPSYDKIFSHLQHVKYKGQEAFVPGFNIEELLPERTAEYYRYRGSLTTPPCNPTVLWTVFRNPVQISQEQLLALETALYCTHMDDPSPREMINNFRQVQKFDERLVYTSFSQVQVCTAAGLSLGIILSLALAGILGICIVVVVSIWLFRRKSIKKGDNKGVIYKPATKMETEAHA
# Legend:
# hCA I = hCA I (Homo sapiens, UniProt P00915); assay: Carbonic anhydrase inhibition assay, hCA I; settings: read-out: Ki (nM) hCA I
# hCA II = hCA II (Homo sapiens, UniProt P00918); assay: Carbonic anhydrase inhibition assay, hCA II; settings: read-out: Ki (nM) hCA II
# hCA IX = hCA IX (Homo sapiens, UniProt Q16790); assay: Carbonic anhydrase inhibition assay, hCA IX; settings: read-out: Ki (nM) hCA IX
# hCA XII = hCA XII (Homo sapiens, UniProt O43570); assay: Carbonic anhydrase inhibition assay, hCA XII; settings: read-out: Ki (nM) hCA XII
smiles,measurement,setting,value
Cn1c(-c2cccs2)cs/c1=N\c1ccc(S(N)(=O)=O)cc1,Ki,hCA I,1650 nM
same,Ki,hCA II,30.3 nM
same,Ki,hCA IX,1870 nM
same,Ki,hCA XII,36.9 nM
